Ab-14 heavy chain CDR variants: yeast mating affinities

Reference: Li et al. 2023, doi:10.1038/s41467-023-39022-2. File: FLAb, binding data.

The target is the same throughout: PDVDLGDISGINAS, from the HR2 region of SARS-CoV-2 spike.

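Designed CDR sequences, proposed from the first random library and measured here. Their group label is 14H_GPLM_Gen (GPLM: also part of the Gaussian process libraries; Gen: genetic algorithm; a sequence that several methods proposed may carry one label only). The scFvs were displayed on barcoded MATa yeast, the peptide on MATalpha yeast. Pairs that bind mate more often; barcode pairs of the diploids are counted by sequencing. The ratio of observed to expected reads was calibrated, replicate by replicate, on BCL2-family standards whose Kd was known from biolayer interferometry. Mating was done six times.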

Parent scFv Ab-14: VH joined to VL by the linker GGGGSGGGGSGGGGS. Changes lie in the heavy chain CDRs alone.
VH: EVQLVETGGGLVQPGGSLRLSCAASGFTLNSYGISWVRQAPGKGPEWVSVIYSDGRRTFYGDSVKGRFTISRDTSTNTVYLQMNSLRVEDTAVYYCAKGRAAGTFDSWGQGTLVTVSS
VL: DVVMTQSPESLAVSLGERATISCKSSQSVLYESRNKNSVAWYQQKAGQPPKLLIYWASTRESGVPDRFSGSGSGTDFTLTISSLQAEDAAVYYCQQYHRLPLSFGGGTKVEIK

Changes read parent residue, position, new residue, counted from the first residue of the VH shown. The read-out is the apparent dissociation constant on a log10 scale (nM): the lower, the stronger. The mean shown is taken over the replicates in which the pair was detected. An entry "ND" has no value in the source: the pair was not observed among the diploids in that replicate. This suggests poor binding but is not conclusive. The authors averaged sequences with at least three values out of six and counted those with two or fewer as poor binders. Of ten entries with the parent sequence, four were seen in most replicates (averages 0.34 to 2.37), three in one and three in none, so single entries are noisy. Nonspecific signal, from three strains lacking the peptide, appeared in 1% of pairings of all heavy chain designs, centred on 2.08 (5% of these signals below 0.84); values are not corrected for it. Also given: how often the same scFv was detected with the empty control strains, with their mean in brackets. The range of this assay differs from that of the first round, and the authors advise against merging the two.

| changes | log10 Kd (nM) by replicate | log10 Kd (nM), mean | control signals |
|---|---|---|---|
| T28E+S53A+R100Q+S107K | 0.22 -0.10 -0.03 -0.41 0.08 0.01 | -0.04 | 0/18 |
| T28S+S31D+G61H | 0.30 0.74 1.07 0.45 0.37 -0.02 | 0.49 | 0/18 |
| F27Y+S53A | 1.50 0.94 1.59 2.06 1.86 1.98 | 1.65 | 0/18 |
| T28S+R100Q+A101I | 0.30 0.49 0.91 1.04 1.58 0.87 | 0.87 | 0/18 |
| S31D+A101T+S107V | ND 1.04 -1.30 -1.10 -0.97 ND | -0.58 | 0/18 |
| S31M+A101T | 1.63 1.62 1.54 1.31 1.38 2.49 | 1.66 | 0/18 |
| T28S+G61I+A101T | ND ND ND ND 0.15 ND | 0.15 | 0/18 |
| T28S+G61T+R100Q+A101E | -0.55 -1.21 -1.34 0.00 -1.61 -1.49 | -1.03 | 0/18 |
| G26H+T28D+G61A+R100Q | 0.55 0.60 0.21 0.22 0.80 0.99 | 0.56 | 1/18 (2.56) |
| T28S+S31E+A101V+S107K | ND -0.53 -0.78 1.63 -0.76 -0.88 | -0.26 | 0/18 |
| T28S+S31D+G61T+A101T | 0.16 -0.39 0.22 -0.29 -0.22 0.00 | -0.09 | 1/18 (1.68) |
| T28N+G61A+S63K+R100Q | 0.72 0.54 0.27 0.52 0.47 0.99 | 0.59 | 1/18 (2.49) |
| T28E+S53A+R100N | 0.04 0.31 -0.08 -0.30 -0.13 -0.10 | -0.05 | 0/18 |
| N30K+S53A+A101T | 0.86 1.32 0.28 0.79 0.70 0.68 | 0.77 | 0/18 |
| T28S+A101V | 0.23 0.23 0.43 0.42 0.48 0.98 | 0.46 | 1/18 (1.48) |
| S31E+R56K+A101T | 0.35 0.35 0.66 -0.12 0.25 0.15 | 0.27 | 0/18 |
| T28S+G61A+R100L+A101V | -0.16 0.72 0.58 0.49 0.70 1.81 | 0.69 | 0/18 |
| G26S+T28S+G61S+R100E | 1.13 0.92 1.50 0.98 0.95 ND | 1.10 | 0/18 |
| T28S+S31E+G61A+S63D+A101T | -0.77 -0.72 -1.07 -0.95 -0.50 -1.17 | -0.86 | 0/18 |
| T28S+R100W+A101V | 1.40 0.48 0.51 0.35 0.34 0.44 | 0.59 | 1/18 (3.39) |
| T28N+S53A+R100E | 0.15 -0.07 -0.41 -0.14 -0.26 0.04 | -0.11 | 0/18 |
| T28S+S31D+G61S+R100K | 0.76 1.19 1.35 1.54 0.66 1.19 | 1.12 | 0/18 |
| T28E+G61A+R100K | 0.46 0.55 0.37 0.34 0.28 0.18 | 0.36 | 0/18 |
| G26S+T28D+R100E | 1.06 1.48 1.06 0.40 1.47 1.51 | 1.16 | 0/18 |
| T28S+G61A+R100W+A101T | 0.56 0.18 0.31 -0.27 0.14 0.50 | 0.24 | 1/18 (1.65) |
| T28Y+S31D+A101T | 1.49 0.71 0.44 0.28 0.30 0.61 | 0.64 | 0/18 |
| T28N+G61A+R100W | 1.78 1.60 1.35 2.42 1.51 2.00 | 1.78 | 0/18 |
| T28S+R56K+R100Q+A101T | -0.01 0.59 0.00 0.01 0.08 0.43 | 0.18 | 1/18 (2.49) |
| R56K+A101Q | 2.16 1.35 1.50 0.98 0.52 1.59 | 1.35 | 0/18 |
| G61S+R100Q+A101L+S107T | 0.65 -0.01 0.12 0.08 -0.09 -0.02 | 0.12 | 0/18 |
| T28S+G61L+R100N | -0.23 1.28 -0.29 1.14 -0.01 -0.04 | 0.31 | 0/18 |
| T28S+R100S+S107V | 0.24 -0.13 0.15 -0.16 -0.08 0.25 | 0.05 | 2/18 (2.48) |
| T28D+R100K+A101S | 0.32 0.13 0.49 0.99 0.13 0.89 | 0.49 | 0/18 |
| N30E+G61A+A101L | 0.49 0.93 0.13 -0.16 0.75 0.31 | 0.41 | 0/18 |
| S31D+F59M+A101T | 0.35 0.00 -0.04 -0.35 0.63 0.01 | 0.10 | 0/18 |
| T28E+G61A+R100S | -0.08 0.05 0.32 -0.27 -0.04 0.31 | 0.05 | 0/18 |
| S53A+R100Q+S107D | 1.03 0.75 0.33 0.53 0.69 1.32 | 0.78 | 0/18 |
| T28E+S53A+R100E | 0.21 0.45 -0.05 -0.09 0.32 0.50 | 0.22 | 0/18 |
| G61I+R100D | ND ND ND ND ND ND | ND | 0/18 |
| T28K+G61T+A101T | ND 0.99 1.92 1.30 ND ND | 1.40 | 0/18 |
| T28S+S31E+G61A+R100T | 0.80 0.31 0.48 0.01 0.17 0.55 | 0.39 | 0/18 |
| A101N+S107T | 2.44 4.03 ND 3.08 ND 2.87 | 3.11 | 0/18 |
| T28G+G61A+A101T | 0.22 0.23 0.15 0.03 -0.19 0.28 | 0.12 | 0/18 |
| T28S+S31N+S63K+A101T | 0.54 1.19 0.80 1.24 0.95 1.39 | 1.02 | 1/18 (3.40) |
| T28S+G61A+A101Q+S107A | 0.54 0.17 0.30 0.45 0.45 0.40 | 0.38 | 1/18 (2.61) |
| T28S+S31D+G61S | ND 1.11 0.25 ND -0.06 0.15 | 0.36 | 0/18 |
| T28D+G61D+R100Q | 0.56 0.52 0.45 0.30 0.30 0.40 | 0.42 | 0/18 |
| T28E+A101T+S107Q | 1.07 0.92 1.78 1.34 0.97 1.05 | 1.19 | 1/18 (2.44) |